# Measured affinities in a library of Ab-95 light chain variants

From the AlphaSeq antibody data of Engelhart et al. 2022 (doi:10.1038/s41597-022-01779-4), copy in the FLAb collection.

All variants were tested on one target, the spike HR2 peptide PDVDLGDISGINAS (SARS-CoV-2).

The variants keep the heavy chain, the linker and the frameworks of Ab-95 (scFv order VH, the linker GGGGSGGGGSGGGGS, VL).
VH: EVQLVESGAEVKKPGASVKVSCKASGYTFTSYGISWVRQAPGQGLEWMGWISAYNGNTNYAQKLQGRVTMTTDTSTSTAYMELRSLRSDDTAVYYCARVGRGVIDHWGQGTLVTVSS
VL: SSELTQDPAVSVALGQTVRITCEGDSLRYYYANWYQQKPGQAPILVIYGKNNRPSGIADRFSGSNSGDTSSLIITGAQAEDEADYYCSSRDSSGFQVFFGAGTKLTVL

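Phage display of a naive human antibody library on the peptide gave the parent. In library AAYL52, one, two or three CDR residues were substituted; doubles and triples were drawn at random. Affinity was read by AlphaSeq, a pooled yeast mating assay with surface-displayed partners. Pairs that bind mate more often; barcode pairs of the diploids are counted by sequencing. Scores were corrected for input abundance and mapped to Kd with protein pairs of known affinity run in the same pool. The assay was run in three technical replicates.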

Changes read parent residue, position, new residue, counted from the first residue of the VL shown.
Scale: log10 of Kd in nM, estimated from mating counts; low values are strong binders.
Averages over replicates are reported, and they cover detected replicates only.
Where no diploid with the target was found in any replicate, the entry reads "no signal": below detection, most likely a poor binder, though not proof of it.
For reference, the parent read 2.31 as the reference entry and 2.25 as a member of this library.

changes	log10 Kd (nM), mean	seen in	empty controls
D25H+D91W+Q96T	3.97	1/3	0/9
E23I+G49C+R90Y	5.68	1/3	1/9
S26A+G49V+D91R	4.41	1/3	4/9
L27T+Y31P+F98D	2.04	3/3	2/9
S55A+S88V+V97N	2.52	3/3	5/9
R53T+P54K+R90W	no signal	0/3	2/9
R28V+Q96P+F98M	2.94	2/3	1/9
E23V+G94D+V97R	3.16	3/3	0/9
Y30S+N33E+N51W	3.93	2/3	5/9
Y29C+A32L+S89R	3.08	3/3	0/9
S88C+S89Q+V97A	3.14	1/3	4/9
L27E+A32Y+K50H	3.04	3/3	2/9
G24N+K50A+R90N	no signal	0/3	3/9
E23F+D91H+G94Q	4.54	3/3	5/9
L27K+G49F+S92I	no signal	0/3	0/9
G24D+Y31F+G94N	3.56	2/3	6/9
K50M+N51D+R53A	5.04	2/3	4/9
L27H+N33K+R90P	4.05	2/3	6/9
A32W+N51T	3.54	1/3	0/9
Y29I+S55T+S89A	3.45	2/3	4/9
D25H+L27K	3.40	2/3	1/9
E23S+Y30I+K50E	2.22	3/3	4/9
R53N+S88I+G94L	3.16	2/3	2/9
Y31R+G94T	3.48	1/3	1/9
L27A+S55P+S92M	4.26	3/3	5/9
K50Q+N51W+S88H	4.04	2/3	2/9
Y30T+Y31M+S88I	1.06	3/3	1/9
N51R+R90D+Q96R	3.93	1/3	5/9
L27R+R28Y+S55D	3.99	2/3	1/9
L27S+P54Y+S92V	3.96	2/3	2/9
E23L+A32C+S88F	3.98	3/3	4/9
D25V+Y29Q	2.07	3/3	6/9
Y31V+A32K+S55C	3.85	1/3	4/9
L27Q+A32E+K50F	no signal	0/3	2/9
A32G+S92L+V97F	3.59	3/3	2/9
R28V+Y29C	4.28	2/3	4/9
N52M+P54K+V97R	3.96	3/3	3/9
S55V+S93N+V97R	2.76	3/3	2/9
Y31Q+F98M	1.71	3/3	0/9
L27Y+K50N+S89T	no signal	0/3	1/9
S26V+Y29E+Y31H	3.46	3/3	3/9
D25I+P54K+D91M	4.06	1/3	0/9
S26E+P54Q+V97P	2.07	3/3	2/9
N51K+P54A+S89G	4.71	2/3	3/9
Y29H+Y30S+S93Q	2.15	3/3	1/9
E23M+A32G+S55P	3.04	3/3	1/9
L27D+G49T	3.66	1/3	2/9
S55E+R90W+Q96C	2.58	3/3	3/9
S92R+F95G	3.01	3/3	1/9
G24L+Y29A+S93M	4.53	2/3	2/9

The opening 4 entries, copied out:

changes	log10 Kd (nM), mean	seen in	empty controls
D25H+D91W+Q96T	3.97	1/3	0/9
E23I+G49C+R90Y	5.68	1/3	1/9
S26A+G49V+D91R	4.41	1/3	4/9
L27T+Y31P+F98D	2.04	3/3	2/9

As a blank, each scFv also met three strains without target: over library AAYL52, 28% of these pairings were detected, typically at 3.91 and seldom below 2.90. The control count says in how many pairings with the empty strains this scFv gave a signal.